Measurements: ChEMBL document CHEMBL4020821, “Targeting Acidic Mammalian chitinase Is Effective in Animal Model of Asthma” (J Med Chem, 2018)

By UniProt entry, the sequences of proteins in these tests, tags left out. Where a name states a change or a piece, a line headed by the entry shows the natural chain unless it says otherwise.
UniProt Q91XA9: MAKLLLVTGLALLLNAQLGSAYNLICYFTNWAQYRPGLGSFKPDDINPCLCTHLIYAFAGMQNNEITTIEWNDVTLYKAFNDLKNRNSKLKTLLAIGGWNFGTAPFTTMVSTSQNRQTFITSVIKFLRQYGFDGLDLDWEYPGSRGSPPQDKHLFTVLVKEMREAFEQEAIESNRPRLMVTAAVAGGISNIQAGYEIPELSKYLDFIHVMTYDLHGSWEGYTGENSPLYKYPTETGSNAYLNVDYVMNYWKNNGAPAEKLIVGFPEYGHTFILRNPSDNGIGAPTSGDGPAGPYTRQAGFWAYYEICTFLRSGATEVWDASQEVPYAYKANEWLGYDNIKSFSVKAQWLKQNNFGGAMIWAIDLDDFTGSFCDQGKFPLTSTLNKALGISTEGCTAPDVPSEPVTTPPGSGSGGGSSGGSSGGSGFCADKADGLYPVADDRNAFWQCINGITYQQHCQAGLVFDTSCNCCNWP

Target: Acidic mammalian chitinase (Mus musculus, UniProt Q91XA9)
Test: Inhibition of mouse recombinant full length C-terminal His-tagged acidic mammalian chitinase expressed in CHO-K1 cells using 4-methylumbelliferyl-beta-D-N,N'-diacetylchitobioside hydrate as substrate after 60 mins by fluorescence assay

IC50: 333 nM
SMILES: CN(CCc1ccc(Cl)cc1Cl)C1CCN(c2nc(N)n[nH]2)CC1
